Laboratory results taken from publication PMC9293909 (Nature Communications, 2022).

By UniProt entry, the sequences of proteins in these tests, tags left out.
UniProt P28647, whole entry: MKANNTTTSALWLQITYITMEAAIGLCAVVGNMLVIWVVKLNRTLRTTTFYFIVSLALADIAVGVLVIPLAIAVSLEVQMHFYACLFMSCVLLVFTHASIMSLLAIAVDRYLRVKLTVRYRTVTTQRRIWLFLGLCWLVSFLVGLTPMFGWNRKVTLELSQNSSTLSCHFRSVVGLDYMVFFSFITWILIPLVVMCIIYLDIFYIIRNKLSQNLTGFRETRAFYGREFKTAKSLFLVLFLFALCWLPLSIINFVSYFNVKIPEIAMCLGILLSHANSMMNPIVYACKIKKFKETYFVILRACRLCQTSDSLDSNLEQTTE

Target: T1, rA3R (Rattus norvegicus, UniProt P28647)
T1 construct: expressed in transfected cells; host or cells: Flp-In-CHO (ThermoFisher R75807), pcDNA5/FRT
Test: cAMP inhibition at rA3R (Flp-In-CHO)
Assay type: cell-based
Conditions: half-maximal response, read-out: pIC50 rA3R (converted)

`OC[C@H]1O[C@@H](n2cnc3c(NC4CCCC4)ncnc32)[C@H](O)[C@@H]1O` [CPA, N^6-Cyclopentyladenosine] was tested, and the IC50 was 38.9 nM.
